Measured values reported in patent publication US10399961B2, “Heteroarylcarboxamide derivatives as plasma kallikrein inhibitors” (Boehringer Ingelheim International GmbH, priority 2015, dated 2019).

Chains of the proteins cited; added tags and fusions are not shown. Residues count along the entry.
UniProt P03952, 391-638 limits assumed: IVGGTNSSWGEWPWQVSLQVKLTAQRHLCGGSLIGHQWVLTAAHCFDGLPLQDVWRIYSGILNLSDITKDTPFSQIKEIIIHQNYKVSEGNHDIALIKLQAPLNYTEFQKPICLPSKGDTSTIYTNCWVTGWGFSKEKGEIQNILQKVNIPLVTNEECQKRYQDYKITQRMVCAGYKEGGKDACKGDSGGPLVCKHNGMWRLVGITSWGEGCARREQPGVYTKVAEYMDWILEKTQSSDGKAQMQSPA
UniProt P03952, 20-390 partner limits assumed: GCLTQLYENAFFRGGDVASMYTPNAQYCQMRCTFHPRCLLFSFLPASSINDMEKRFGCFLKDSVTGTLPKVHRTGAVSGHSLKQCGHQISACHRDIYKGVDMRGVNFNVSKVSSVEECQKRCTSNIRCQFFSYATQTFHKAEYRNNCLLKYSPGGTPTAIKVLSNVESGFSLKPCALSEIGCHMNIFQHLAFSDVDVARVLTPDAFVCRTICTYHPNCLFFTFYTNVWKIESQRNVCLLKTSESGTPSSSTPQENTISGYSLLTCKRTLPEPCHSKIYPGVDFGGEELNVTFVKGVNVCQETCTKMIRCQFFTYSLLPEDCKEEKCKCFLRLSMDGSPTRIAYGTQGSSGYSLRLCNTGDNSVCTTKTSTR

Biological target: human Plasma Kallikrein (KLKB1) (Homo sapiens (Human), UniProt P03952)
Assay: Inhibition of KLKB1 endpoint assay
Conditions: read-out: IC50 measurements for the inhibition of human Plasma Kallikrein (KLKB1), fluorogenic substrate H-Pro-Phe-Arg-AMC, 1 hr at Room Temperature
Protocol: The ability of compounds of Formula I to inhibit plasma kallikrein (KLKB1), Factor XIIa (FXIIa), Factor XIa (FXIa), Factor Xa (FXa), Factor IIa (alpha-thrombin; FIIa), plasmin, trypsin, tissue kallikrein 1 (KLK1), Factor VIIa (FVIIa), or FVIIa complexed with Tissue Factor, phospholipids and CaCl2 (FVIIa/TF/PL/CaCl2) was determined using the following biochemical assays in assay buffer (100 mM Tris, 150 mM NaCL, adjusted to a pH of 7.8 with HCl, and containing 0.1% (w/v) BSA and 0.05% (v/v) Tween20) in the presence of 1% (v/v) DMSO:
Human KLKB1 (0.01 U/mL; Enzyme Research Laboratories) or rat KLKB1 (0.625 nM; produced in-house) was incubated for 1 hr at Room Temperature with 0.10 μM fluorogenic substrate H-Pro-Phe-Arg-AMC (11295 from Bachem) and various concentrations of the test compound in assay buffer. Subsequently, PPACK II (Calbiochem) was added as a stop solution to achieve a final concentration of 1 μM and fluorescence was measured using an Envision Reader (PerkinElmer) with the wavelength excitation setting of 355 nm and the wavelength emission setting of 460 nm.

| Compound | IC50 [nM] |
| --- | --- |
| Nc1ccc2c(n1)CCC2NC(=O)c1cnn(Cc2ccc(Cn3ccccc3=O)cc2)c1 (centres unmarked) | 9 |
| Cc1cc(N)nc2c1C(NC(=O)c1cnn(Cc3ccc(Cn4ccccc4=O)cc3)c1)CC2 (centres unmarked) | 4 |
